# Source: patent US20080027010A1, “Treatment of refractory cancers using Na+/K+-ATPase inhibitors” (Bionaut Pharmaceuticals, Inc., priority 2004, published 2008)
# How the values were obtained:
# [1] = 3.5 mg/d once, 1.5 mg for two days, 1 mg/d thereafter; cited from earlier work
# [2] = biological target: T1, Na^+/K^+-ATPase (Canis lupus familiaris, UniProt P50997); assay: Na+/K+-ATPase inhibition, enzyme preparation from dog kidney (Sigma); assay type: biochemical
# T1 construct: enzyme preparation from dog kidney (Sigma); purchased Sigma; host or cells: dog kidney tissue
# Method: The relative activity of the bufadienolide class of cardiac glycosides was determined to be much greater then cardenolide class, Anti-prolerafitive IC50 values were determined by MTS assay using an A549 cell line. Na^+/K^+-ATPase inhibition IC50 values were obtained using enzyme preparation from dog kidney (Sigma).
# [3] = system: rats; assay: Oral LD50 in rats; details: p.o.
compound,measurement,setting,value
"C[C@@H]1OC(OC2C=C3CCC4C(CC[C@]5(C)[C@@H](c6ccc(=O)oc6)CC[C@]45O)[C@@]3(C)CC2)[C@H](O)[C@H](O)[C@H]1O (stereo partly drawn) [BNC-4, proscillaridin]",time to achieve the optimal therapeutic level,[1],about 60 hours
same,"potency relative to BNC-151, inhibition of Na^+/K^+-ATPase",[2],about 10 times
same,toxicity relative to Digitoxin,[3],about half as toxic as Digitoxin
